Measured affinities in a library of Ab-14 heavy chain variants

All variants were tested on one target, the spike HR2 peptide PDVDLGDISGINAS (SARS-CoV-2).

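The starting antibody came from a phage panning campaign against this peptide. Variants in AAYL49 differ from the parent at up to three CDR positions; double and triple changes were sampled at random. AlphaSeq pools MATa yeast showing the antibodies with MATalpha yeast showing the peptide. The frequency of each diploid, read from paired DNA barcodes, reflects how well the two displayed proteins bind. Each replicate has its own calibration line, from reference interactions of the BCL2 family. Mating was done three times.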

Parent scFv Ab-14: VH joined to VL by a (GGGGS)3 linker. Changes lie in the heavy chain CDRs alone.
VH: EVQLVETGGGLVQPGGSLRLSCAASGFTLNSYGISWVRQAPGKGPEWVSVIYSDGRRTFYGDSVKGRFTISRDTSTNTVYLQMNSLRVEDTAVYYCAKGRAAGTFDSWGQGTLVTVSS
VL: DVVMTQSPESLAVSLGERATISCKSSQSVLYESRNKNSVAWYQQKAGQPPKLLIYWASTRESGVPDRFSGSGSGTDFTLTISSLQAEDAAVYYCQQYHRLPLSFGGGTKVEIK

Each variant is given by its three heavy chain CDRs, as the data file delimits them; those of the parent are GFTLNSYGIS, VIYSDGRRTFYGDSVK, GRAAGTFDS. Numbers give log10(Kd / nM), so 0 is 1 nM and 3 is 1 µM. Smaller is tighter. "nd" means that the variant was in the library but no mating with the target was seen in that replicate; the authors take this as a sign of poor binding, and no number exists.

{"CDR-H1": "GFTLNSYGWS", "CDR-H2": "VIYSDGRRTFYGDSVK", "CDR-H3": "GRAAGTFDS", "log10 Kd (nM) by replicate": "nd nd nd", "signal with controls": "1 of 9 (2.90)"}
{"CDR-H1": "GFTLASYGAS", "CDR-H2": "VIGSDGRRTFYGDSVK", "CDR-H3": "GRAAGTFDS", "log10 Kd (nM) by replicate": "4.28 3.86 nd", "signal with controls": "2 of 9 (4.42)"}
{"CDR-H1": "GFPLNSYGIS", "CDR-H2": "VIYSDGRRTFYLDYVK", "CDR-H3": "GRAAGTFDS", "log10 Kd (nM) by replicate": "nd 4.10 4.58", "signal with controls": "4 of 9 (4.32)"}
{"CDR-H1": "GFTLNSYGIS", "CDR-H2": "DIYSDGRRTFYGDSVK", "CDR-H3": "GRAGDTFDS", "log10 Kd (nM) by replicate": "nd nd 3.43", "signal with controls": "0 of 9"}
{"CDR-H1": "GFHLNSYGFS", "CDR-H2": "VIYSDGRRTFYGDSVK", "CDR-H3": "GRAGGTFDS", "log10 Kd (nM) by replicate": "3.50 3.46 3.83", "signal with controls": "4 of 9 (4.22)"}
{"CDR-H1": "EFTLNSYGWM", "CDR-H2": "VIYSDGRRTFYGDSVK", "CDR-H3": "GRAAGTFDS", "log10 Kd (nM) by replicate": "nd 4.72 5.99", "signal with controls": "5 of 9 (4.30)"}
{"CDR-H1": "GFTLNDYGIS", "CDR-H2": "VIYSDGRRTFYGDSVK", "CDR-H3": "GRAAATFNS", "log10 Kd (nM) by replicate": "nd nd 5.31", "signal with controls": "0 of 9"}
{"CDR-H1": "GFTLNSYGIS", "CDR-H2": "VIYSDGRRTFYGYSVK", "CDR-H3": "GRDAGTFTS", "log10 Kd (nM) by replicate": "nd nd nd", "signal with controls": "2 of 9 (4.40)"}
{"CDR-H1": "GFTCNSYGIS", "CDR-H2": "VIYSDGRRTFIGDSVK", "CDR-H3": "GRAAGTFDS", "log10 Kd (nM) by replicate": "nd nd nd", "signal with controls": "1 of 9 (3.27)"}
{"CDR-H1": "GFKLNSYGIS", "CDR-H2": "VIYKDGRRTFYGDSVG", "CDR-H3": "GRAAGTFDS", "log10 Kd (nM) by replicate": "nd nd nd", "signal with controls": "5 of 9 (4.19)"}
{"CDR-H1": "GFILNSYGIS", "CDR-H2": "VIYSDTRRTFYGDSVK", "CDR-H3": "GRAAGIFDS", "log10 Kd (nM) by replicate": "nd 3.42 nd", "signal with controls": "1 of 9 (2.81)"}
{"CDR-H1": "GFTLNSYMIS", "CDR-H2": "VIYSDGRRTFFGDSVK", "CDR-H3": "GRAAGTGDS", "log10 Kd (nM) by replicate": "2.56 nd nd", "signal with controls": "1 of 9 (3.51)"}
{"CDR-H1": "GDTLNSYGIS", "CDR-H2": "VIYSDGRRTEYGVSVK", "CDR-H3": "GRAAGTFDS", "log10 Kd (nM) by replicate": "nd 1.95 nd", "signal with controls": "0 of 9"}
{"CDR-H1": "GFTLNSYGIS", "CDR-H2": "VIYWDTRRTFYGDSVK", "CDR-H3": "GNAAGTFDS", "log10 Kd (nM) by replicate": "nd nd nd", "signal with controls": "0 of 9"}
{"CDR-H1": "GFTQNSYGSS", "CDR-H2": "VIYSDGRRTFYGDSVK", "CDR-H3": "SRAAGTFDS", "log10 Kd (nM) by replicate": "nd nd 3.09", "signal with controls": "0 of 9"}
{"CDR-H1": "GFTLNSYGIS", "CDR-H2": "VIYLDGRMTFYGDSVK", "CDR-H3": "GRAAGTFGS", "log10 Kd (nM) by replicate": "5.58 nd 3.76", "signal with controls": "2 of 9 (3.39)"}
{"CDR-H1": "GFTLNSYGIS", "CDR-H2": "VIYSDGRRTFYGDMVI", "CDR-H3": "GRAAGMFDS", "log10 Kd (nM) by replicate": "2.87 3.14 4.09", "signal with controls": "3 of 9 (4.82)"}
{"CDR-H1": "GFTLASYGIS", "CDR-H2": "VIYSDGRRSFYGDSTK", "CDR-H3": "GRAAGTFDS", "log10 Kd (nM) by replicate": "4.00 nd nd", "signal with controls": "2 of 9 (3.44)"}
{"CDR-H1": "GFTLNSYGIS", "CDR-H2": "VIYSDQRRTHYGDSVK", "CDR-H3": "GRAAGTFDS", "log10 Kd (nM) by replicate": "nd 3.60 nd", "signal with controls": "0 of 9"}
{"CDR-H1": "GFTLNSYGIS", "CDR-H2": "VIYSDGRRTIYGDSVK", "CDR-H3": "GRAAGTFDS", "log10 Kd (nM) by replicate": "nd nd nd", "signal with controls": "3 of 9 (3.70)"}

Repeated from above, the 2 best binders with a signal in all replicates:

{"CDR-H1": "GFTLNSYGIS", "CDR-H2": "VIYSDGRRTFYGDMVI", "CDR-H3": "GRAAGMFDS", "log10 Kd (nM) by replicate": "2.87 3.14 4.09", "signal with controls": "3 of 9 (4.82)"}
{"CDR-H1": "GFHLNSYGFS", "CDR-H2": "VIYSDGRRTFYGDSVK", "CDR-H3": "GRAGGTFDS", "log10 Kd (nM) by replicate": "3.50 3.46 3.83", "signal with controls": "4 of 9 (4.22)"}

Background: pairings of library AAYL49 with three empty control strains gave a value in 15% of cases (median 4.06, 5th percentile 2.83). Values in that range, when seen in few replicates, are hard to tell from nonspecific mating. The control count says in how many pairings with the empty strains this scFv gave a signal, with their mean in brackets.

Source: Engelhart et al. 2022 (doi:10.1038/s41597-022-01779-4), MIT Lincoln Laboratory and A-Alpha Bio; data file from the FLAb repository.